Experimental data reported in publication PMC4356558, “Prediction of Chemical Respiratory Sensitizers Using GARD, a Novel In Vitro Assay Based on a Genomic Biomarker Signature” (PLoS ONE, 2015).

How the values were obtained:
MUTZ-3 cells = test: Chemical cytotoxicity, concentration yielding 90% relative viability (Rv90), propidium iodide staining; conditions: independent test dataset
[1] = system: GRPS genomic biomarker signature (389 transcripts) in MUTZ-3 cells; test: GARD assay with GARD Respiratory Prediction Signature (GRPS), SVM classification of respiratory sensitizers

Substance: Isoeugenol
- Rv90 (MUTZ-3 cells): 300 µM
- SVM decision value 1 ([1]; replicate stimulation 1, 24 h at GARD input concentration, independent test dataset, > 0 = respiratory sensitizer): −1.44
- SVM decision value 2 ([1]; replicate stimulation 2, 24 h at GARD input concentration, independent test dataset, > 0 = respiratory sensitizer): −1.27
- SVM decision value 3 ([1]; replicate stimulation 3, 24 h at GARD input concentration, independent test dataset, > 0 = respiratory sensitizer): −1.32
- Classification, Pos if 1 sample > 0 ([1]; respiratory sensitizer if any of replicate stimulations has SVM decision value > 0): Non-sensitizer
